Like-named read-outs stand apart in the source and are kept apart here.
Molecular target: T1, GIP receptor (GIPR) (Homo sapiens, UniProt P48546)
T1 construct: host or cells: CHO-K1
T1 sequence (P48546 22-466): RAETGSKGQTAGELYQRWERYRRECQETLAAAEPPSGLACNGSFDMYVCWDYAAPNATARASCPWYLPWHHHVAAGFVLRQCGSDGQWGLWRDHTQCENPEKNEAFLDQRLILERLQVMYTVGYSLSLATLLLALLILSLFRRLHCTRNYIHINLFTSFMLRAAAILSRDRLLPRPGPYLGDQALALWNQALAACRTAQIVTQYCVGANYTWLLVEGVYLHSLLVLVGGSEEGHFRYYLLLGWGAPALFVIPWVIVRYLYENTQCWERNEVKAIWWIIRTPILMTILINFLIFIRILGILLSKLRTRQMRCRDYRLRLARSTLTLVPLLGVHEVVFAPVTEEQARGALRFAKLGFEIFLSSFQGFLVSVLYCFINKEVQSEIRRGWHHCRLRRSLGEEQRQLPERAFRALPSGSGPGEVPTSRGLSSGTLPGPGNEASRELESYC
Experiment: GIP receptor activation in CHO-K1 cells stably overexpressing GIPR
Format: cell-based
Details: retatrutide formulations, 20 mM NaPO4, glycine, sucrose, histidine pH 7.5, read-out: CBA potency GIPR
Method: These reporter cells were purchased from Genscript (Piscataway, NJ, cat #M00451) and were maintained following the manufacturer's instructions. […] Once the cells reached 70-80% confluence, they were detached using trypsin. For all assays, cells were seeded in clear-bottom, opaque 96-well plates at a density of 10,000 cells per well in growth medium. Cells were left to attach for 10 minutes at room temperature prior to being transferred to a 37° C. incubator (5% CO2) overnight. The next day, cells were treated with incretin mimetics to assess intracellular cAMP accumulation, using the cAMP-GloTM Max Assay from Promega (Madison, WI, cat #V1682) following the manufacturer's instructions. Briefly, cells were starved in […] modified) medium (no additional supplements) for 2 hours at 37° C. incubator (5% CO2). […] Medium was removed from the culture plates, and cells were treated with the appropriate mixes of incretin mimetics. Treatment duration was for 30 min at 37° C. (5% CO2). All treatments were performed in technical duplicates and at least two independent experiments were conducted for each incretin mimetic. Cells were lyzed for 20 minutes at room temperature (150 rpm) using the kit's buffer. Following the kit's instructions, luciferin was then added for 10 minutes at room temperature (in the dark), following which luminescence was assessed. The data were plotted in GraphPad Prism, which was used to calculate IC50 values as a non-linear regression. […] These reporter cells were purchased from Genscript (Piscataway, NJ, cat #M00486). The same methodology described above was applied for these cells.

Structure (SMILES): CC[C@H](C)[C@H](NC(=O)[C@H](Cc1ccccc1)NC(=O)[C@H](C)NC(=O)C(C)(C)NC(=O)[C@H](CCC(N)=O)NC(=O)[C@H](C)NC(=O)[C@H](CCCCNC(=O)COCCOCCNC(=O)CC[C@H](NC(=O)CCCCCCCCCCCCCCCCCCC(=O)O)C(=O)O)NC(=O)[C@H](CCCCN)NC(=O)[C@H](CC(=O)O)NC(=O)[C@H](CC(C)C)NC(=O)[C@](C)(CC(C)C)NC(=O)[C@@H](NC(=O)[C@H](CO)NC(=O)[C@H](Cc1ccc(O)cc1)NC(=O)[C@H](CC(=O)O)NC(=O)[C@H](CO)NC(=O)[C@@H](NC(=O)[C@H](Cc1ccccc1)NC(=O)[C@@H](NC(=O)CNC(=O)[C@H](CCC(N)=O)NC(=O)C(C)(C)NC(=O)[C@@H](N)Cc1ccc(O)cc1)[C@@H](C)O)[C@@H](C)O)[C@@H](C)CC)C(=O)N[C@@H](CCC(=O)O)C(=O)N[C@@H](Cc1ccc(O)cc1)C(=O)N[C@@H](CC(C)C)C(=O)N[C@@H](CC(C)C)C(=O)N[C@@H](CCC(=O)O)C(=O)NCC(=O)NCC(=O)N1CCC[C@H]1C(=O)N[C@@H](CO)C(=O)N[C@@H](CO)C(=O)NCC(=O)N[C@@H](C)C(=O)N1CCC[C@H]1C(=O)N1CCC[C@H]1C(=O)N1CCC[C@H]1C(=O)N[C@@H](CO)C(N)=O [Retatrutide alone]
- EC50 (D 14, RT): 1.2 pM
- EC50 (D 28, 2-8° C.): 1.1 pM
- EC50 (D 28, RT): 1.1 pM
